One compound from patent US6953793B2 (priority 2000, dated 2005) can be followed below.

Protein sequences, listed by entry. Tags and fused reporters are not part of them. Residues count along the entry.
UniProt P25774, 115-331 limits assumed: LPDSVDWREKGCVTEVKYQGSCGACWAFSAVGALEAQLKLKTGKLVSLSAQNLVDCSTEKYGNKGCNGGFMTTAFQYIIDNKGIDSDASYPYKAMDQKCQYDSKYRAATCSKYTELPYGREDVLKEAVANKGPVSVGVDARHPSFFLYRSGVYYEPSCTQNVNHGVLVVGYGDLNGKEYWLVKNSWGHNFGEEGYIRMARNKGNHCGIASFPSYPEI

The experiment addresses Recombinant human cathepsin S (CatS) (Homo sapiens, UniProt P25774). Put plainly: Cathepsin S Inhibition Assay. The note with it: Table 3; 100 mM sodium acetate pH 5.0, 1 mM DTT, 100 mM NaCl; 20 μM substrate. It is filed as biochemical.

pIC50: −log10 of the molar value. Only a part of the results on these compounds is given; other tests are left out.

With `CNC(=O)N(c1cccc(Cl)c1)C1CCN(CC(O)Cn2nc(-c3ccc(Cl)c(C)c3)c3c2CCN(C(C)=O)C3)CC1` (stereo not shown), the pIC50 – broadly, −log10 of the IC50, conventionally taken in molar units – was 6.06.
